Test results from patent publication US20230159537A1, “COMPOUND, PREPARATION METHOD THEREOF, AND USE THEREOF IN PREPARATION OF ANTI-CANCER DRUG” (TIANJIN JIKUN MEDICAL TECHNOLOGY CO., LTD., priority 2020, published 2023).

Test system: FGFR2 and downstream signaling pathway in SNU-16 cells
Type: cell-based, human

COc1cc(OC)cc(-c2nn(CCCCCN3CCN(C(=O)/C=C/C(F)(F)F)CC3)c3ncnc(N)c23)c1 [Compound 36]
phosphorylation / activation of FGFR2 in SNU-16 cells: significantly inhibited; also recorded: inhibits the activation of FGFR2 and a downstream signaling pathway thereof

“Also recorded” adds a separate entry of the source.
